Measured values published in patent publication US20050008616A1, “Recombinant human interferon-beta-1b polypeptides” (Schering Aktiengesellschaft, priority 2003, published 2005).

How the values were obtained:
MxA gene = MxA gene induction assay (ICLA); type: cell-based, human; details: product label specific activity of reconstituted IFN-β-1b/Betaseron® as IFN standard; FIG. 2A
Text: Based on the specific induction of the MxA gene by type I IFNs in cultured human cells (Von Wussow, P. et al. (1990) Eur. J. Immunol. 20:2015-2019; and Simon, A. et al. (1991) J. Interferon Res. 11:215-219), an immunochemiluminometric (“ICLA”) assay was developed by Files, J. G. et al. (1998) J. Interferon Res. 18:1019-1024. The ICLA assay, which is based on the procedure of Oh, S. K. et al. (1994) J. Immunol. Meth. 176:79-91, detects MXa protein in cell lysates using two non-competing anti-MxA monoclonal antibodies, one of which is conjugated with acridinium ester, which is detected in a luminometer. The MxA gene induction ICLA assay procedure used herein is described in detail in Files, J. G. et al. (1998) supra.

[1] = IFN-β specific activity, assay not stated
[2] = relative to IFN-β-1b; literature; cited from earlier work

Substance: IFN-β-1a: recombinant human IFN-β expressed in CHO cells, 166 amino acids, N-linked glycosylated (SEQ ID NO: 1) [reference compound]
- specific activity (MxA gene): 1.45 to 3.22×10^8 IU/mg
- specific activity ([1]; assay not stated): 2 to 3×10^8 IU/mg
- specific activity, fold greater as compared to IFN-β-1b ([1]; summary of Example 1): ~10 fold
- specific activity, fold higher than IFN-β-1b [2]: approximately 10 fold
